Chains of the proteins cited; added tags and fusions are not shown. Residues count along the entry.
UniProt Q6TY19, 24-928 limits assumed: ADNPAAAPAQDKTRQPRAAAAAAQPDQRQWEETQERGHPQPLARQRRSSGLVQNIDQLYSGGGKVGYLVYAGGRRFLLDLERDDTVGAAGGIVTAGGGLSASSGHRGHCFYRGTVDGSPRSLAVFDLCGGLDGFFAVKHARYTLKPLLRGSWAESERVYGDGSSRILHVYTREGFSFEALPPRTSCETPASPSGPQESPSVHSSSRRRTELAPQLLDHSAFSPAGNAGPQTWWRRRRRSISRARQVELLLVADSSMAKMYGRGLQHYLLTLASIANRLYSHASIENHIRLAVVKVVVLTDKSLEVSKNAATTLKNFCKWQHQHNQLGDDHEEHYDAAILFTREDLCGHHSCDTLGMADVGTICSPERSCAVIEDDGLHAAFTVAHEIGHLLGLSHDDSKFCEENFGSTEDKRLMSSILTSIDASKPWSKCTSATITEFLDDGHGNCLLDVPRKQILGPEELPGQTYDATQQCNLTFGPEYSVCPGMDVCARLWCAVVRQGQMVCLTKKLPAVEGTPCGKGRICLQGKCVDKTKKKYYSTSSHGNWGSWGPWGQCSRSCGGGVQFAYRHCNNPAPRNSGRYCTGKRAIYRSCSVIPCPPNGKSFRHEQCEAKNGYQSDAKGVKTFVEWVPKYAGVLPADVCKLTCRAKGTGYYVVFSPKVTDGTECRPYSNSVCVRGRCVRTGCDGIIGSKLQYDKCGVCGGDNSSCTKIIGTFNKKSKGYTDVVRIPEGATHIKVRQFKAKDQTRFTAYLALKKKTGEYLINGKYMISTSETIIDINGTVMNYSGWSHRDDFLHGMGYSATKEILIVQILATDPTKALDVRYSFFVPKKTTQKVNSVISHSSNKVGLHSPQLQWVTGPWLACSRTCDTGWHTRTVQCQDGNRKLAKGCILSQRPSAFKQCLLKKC
UniProt Q9UNA0, 262-930: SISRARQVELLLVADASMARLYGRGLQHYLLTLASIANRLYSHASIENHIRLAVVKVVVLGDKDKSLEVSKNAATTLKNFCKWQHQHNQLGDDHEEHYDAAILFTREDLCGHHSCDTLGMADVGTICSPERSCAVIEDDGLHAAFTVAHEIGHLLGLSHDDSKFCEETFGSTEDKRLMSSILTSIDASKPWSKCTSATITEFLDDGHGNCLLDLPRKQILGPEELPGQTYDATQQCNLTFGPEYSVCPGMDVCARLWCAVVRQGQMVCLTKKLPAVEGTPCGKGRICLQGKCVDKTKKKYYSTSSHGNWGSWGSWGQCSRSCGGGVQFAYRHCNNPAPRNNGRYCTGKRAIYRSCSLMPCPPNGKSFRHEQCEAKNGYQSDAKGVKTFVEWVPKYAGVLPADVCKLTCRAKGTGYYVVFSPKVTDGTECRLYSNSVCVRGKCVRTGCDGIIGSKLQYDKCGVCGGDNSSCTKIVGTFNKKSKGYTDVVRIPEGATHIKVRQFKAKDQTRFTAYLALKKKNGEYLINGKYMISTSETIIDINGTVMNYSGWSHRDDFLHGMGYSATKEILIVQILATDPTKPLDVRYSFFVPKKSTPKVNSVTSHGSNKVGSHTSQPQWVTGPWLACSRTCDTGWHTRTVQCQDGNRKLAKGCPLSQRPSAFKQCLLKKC
UniProt P78536, whole entry, looked up, stated change not applied: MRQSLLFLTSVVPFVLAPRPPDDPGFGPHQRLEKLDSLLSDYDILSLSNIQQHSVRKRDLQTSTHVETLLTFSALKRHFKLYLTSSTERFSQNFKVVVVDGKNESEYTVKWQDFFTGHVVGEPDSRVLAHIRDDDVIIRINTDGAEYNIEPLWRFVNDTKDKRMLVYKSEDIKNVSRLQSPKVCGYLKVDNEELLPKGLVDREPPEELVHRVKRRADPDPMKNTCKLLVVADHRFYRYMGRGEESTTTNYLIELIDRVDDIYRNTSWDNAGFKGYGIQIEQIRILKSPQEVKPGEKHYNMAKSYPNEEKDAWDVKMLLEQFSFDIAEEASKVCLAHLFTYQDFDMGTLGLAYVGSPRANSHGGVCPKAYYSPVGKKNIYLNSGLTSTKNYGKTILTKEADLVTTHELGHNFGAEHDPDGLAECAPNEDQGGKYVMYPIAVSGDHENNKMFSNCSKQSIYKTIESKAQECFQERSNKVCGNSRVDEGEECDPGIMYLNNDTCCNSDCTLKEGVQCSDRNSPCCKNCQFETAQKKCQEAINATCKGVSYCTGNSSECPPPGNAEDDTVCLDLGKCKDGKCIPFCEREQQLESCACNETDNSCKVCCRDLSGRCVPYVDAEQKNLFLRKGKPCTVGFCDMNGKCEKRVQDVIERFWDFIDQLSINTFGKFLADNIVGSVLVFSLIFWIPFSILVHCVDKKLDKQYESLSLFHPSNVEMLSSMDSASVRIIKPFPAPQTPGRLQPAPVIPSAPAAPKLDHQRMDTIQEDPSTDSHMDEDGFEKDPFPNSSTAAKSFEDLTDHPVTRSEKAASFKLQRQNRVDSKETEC
UniProt P08253, 110-660: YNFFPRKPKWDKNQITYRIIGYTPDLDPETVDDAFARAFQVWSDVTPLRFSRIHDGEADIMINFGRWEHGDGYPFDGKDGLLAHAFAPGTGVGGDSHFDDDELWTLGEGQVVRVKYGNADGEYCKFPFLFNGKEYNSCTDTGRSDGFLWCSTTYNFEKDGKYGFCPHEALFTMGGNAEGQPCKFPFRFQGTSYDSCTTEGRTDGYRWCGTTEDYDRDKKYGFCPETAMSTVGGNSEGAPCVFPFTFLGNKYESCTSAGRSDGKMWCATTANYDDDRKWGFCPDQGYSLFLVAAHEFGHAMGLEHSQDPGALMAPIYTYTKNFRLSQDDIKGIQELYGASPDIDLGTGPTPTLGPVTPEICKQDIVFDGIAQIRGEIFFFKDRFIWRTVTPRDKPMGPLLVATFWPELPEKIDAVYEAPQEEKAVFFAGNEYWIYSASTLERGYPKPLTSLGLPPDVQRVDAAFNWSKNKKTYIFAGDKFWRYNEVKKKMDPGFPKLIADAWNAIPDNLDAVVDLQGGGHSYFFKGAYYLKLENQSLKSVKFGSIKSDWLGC

One experiment has as its target rnADAMTS-5 (1-564-6H) (Rattus norvegicus, UniProt Q6TY19). The note with it: read-out: Rat ADAMTS-5 potency IC50.
The IC50 is the concentration needed to halve the response being measured. Consider `CN(C)Cc1ccc(C2(CCC(=O)N3CCN(c4cccc(Cl)c4)CC3)NC(=O)NC2=O)cc1` (stereo not drawn) [compound 83, 5-[3-[4-(3-chlorophenyl)piperazin-1-yl]-3-oxo-propyl]-5-[4-(dimethylaminomethyl)phenyl]imidazolidine-2,4-dione], for which the IC50 stood at 436 nM.

In another experiment the target is T1, human ADAMTS-5 (Homo sapiens (Human), UniProt Q9UNA0). The note with it: read-out: hADAMTS-5 potency IC50.
`CN(C)Cc1ccc(C2(CCC(=O)N3CCN(c4cccc(Cl)c4)CC3)NC(=O)NC2=O)cc1` (stereo not drawn) [compound 83, 5-[3-[4-(3-chlorophenyl)piperazin-1-yl]-3-oxo-propyl]-5-[4-(dimethylaminomethyl)phenyl]imidazolidine-2,4-dione]: the IC50 is 423 nM.

The target in another experiment is T1, human ADAMTS-5. The note with it: read-out: hADAMTS-5 potency IC50. The source holds these as a separate data set.
For `C[C@H]1CN(C(=O)CCC2(C3CC3)NC(=O)NC2=O)CCN1c1ccc2ncsc2c1` (stereo partly drawn) [compound 305, 5-[3-[(3S)-4-(1,3-benzothiazol-6-yl)-3-methyl-piperazin-1-yl]-3-oxo-propyl]-5-cyclopropyl-imidazolidine-2,4-dione], the IC50 amounted to 674 nM.

The next experiment addresses human TACE (Homo sapiens (Human), UniProt P78536). The note with it: read-out: TACE potency IC50.
For the molecule `CC(CC1NC(=O)NC1=O)C(=O)N1CCN(c2cc(Cl)cc(Cl)c2)CC1` (stereo not drawn) [compound 200, 5-[3-[4-(3,5-dichlorophenyl)piperazin-1-yl]-2-methyl-3-oxo-propyl]imidazolidine-2,4-dione], the IC50 was determined as 1060 nM.
Turning to `CC(CC1NC(=O)NC1=O)C(=O)N1CCN(c2cc(Cl)cc(Cl)c2)CC1` (stereo not drawn) [compound 219, 5-[3-[4-(3,5-dichlorophenyl)piperazin-1-yl]-2-methyl-3-oxo-propyl]imidazolidine-2,4-dione], the IC50 came to 441 nM.
Same read-out and setting: for `CC(CC1(c2ccccn2)NC(=O)NC1=O)C(=O)N1CCN(c2ccc(F)c(Cl)c2)[C@@H](C)C1` (stereo partly drawn) [compound 245, 5-[3-[(3S)-4-(3-chloro-4-fluoro-phenyl)-3-methyl-piperazin-1-yl]-2-methyl-3-oxo-propyl]-5-(2-pyridyl)imidazolidine-2,4-dione] the value was 2130 nM.
On to `CC(CC1(c2ccccn2)NC(=O)NC1=O)C(=O)N1CCN(c2ccc(F)c(Cl)c2)[C@@H](C)C1` (stereo partly drawn) [compound 437, 5-(3-((S)-4-(3-chloro-4-fluorophenyl)-3-methylpiperazin-1-yl)-2-methyl-3-oxopropyl)-5-(pyridin-2-yl)imidazolidine-2,4-dione], for which the IC50 was determined as 2130 nM.

A further experiment addresses human MMP2 (Homo sapiens (Human), UniProt P08253). The note with it: read-out: hMMP-2 potency IC50.
For `O=C1NC(=O)C(CCC(=O)N2CCN(c3ccccc3)CC2)(c2ccccc2)N1` (stereo not drawn) [compound 4, 5-[3-oxo-3-(4-phenylpiperazin-1-yl)propyl]-5-phenyl-imidazolidine-2,4-dione], the IC50 amounted to 259 nM.
On to `O=C1NC(=O)C(CCC(=O)N2CCN(c3cccc(Cl)c3)CC2)(c2ccccc2)N1` (stereo not drawn) [compound 6, 5-[3-[4-(3-chlorophenyl)piperazin-1-yl]-3-oxo-propyl]-5-phenyl-imidazolidine-2,4-dione], for which the IC50 is 379 nM.
Same read-out and setting: for `Cc1ccccc1N1CCN(C(=O)CCC2(c3ccccc3)NC(=O)NC2=O)CC1` (stereo not drawn) [compound 7, 5-[3-[4-(o-tolyl)piperazin-1-yl]-3-oxo-propyl]-5-phenyl-imidazolidine-2,4-dione] the value was greater than 16700 nM; for `Cc1cccc(N2CCN(C(=O)CCC3(c4ccccc4)NC(=O)NC3=O)CC2)c1C` (stereo not drawn) [compound 8, 5-[3-[4-(2,3-dimethylphenyl)piperazin-1-yl]-3-oxo-propyl]-5-phenyl-imidazolidine-2,4-dione], greater than 16700 nM.
Turning to `O=C1NC(=O)C(CCC(=O)N2CCN(c3ccc4ccccc4c3)CC2)(c2ccccc2)N1` (stereo not drawn) [compound 9, 5-[3-[4-(2-naphthyl)piperazin-1-yl]-3-oxo-propyl]-5-phenyl-imidazolidine-2,4-dione], the IC50 is 271 nM.
Regarding `O=C1NC(=O)C(CCC(=O)N2CCN(c3ccc(Cl)c(F)c3)CC2)(c2ccccc2)N1` (stereo not drawn) [compound 10, 5-[3-[4-(4-chloro-3-fluoro-phenyl)piperazin-1-yl]-3-oxo-propyl]-5-phenyl-imidazolidine-2,4-dione], the IC50 came out at 26 nM.
Same read-out and setting: for `Cc1cccc(N2CCN(C(=O)CCC3(C)NC(=O)NC3=O)CC2)c1C` (stereo not drawn) [compound 11, 5-[3-[4-(2,3-dimethylphenyl)piperazin-1-yl]-3-oxo-propyl]-5-methyl-imidazolidine-2,4-dione] the value was greater than 20000 nM; for `Cc1ccccc1N1CCN(C(=O)CCC2(C)NC(=O)NC2=O)CC1` (stereo not drawn) [compound 12, 5-methyl-5-[3-[4-(o-tolyl)piperazin-1-yl]-3-oxo-propyl]imidazolidine-2,4-dione], greater than 20000 nM; for `Cc1cc(Cl)ccc1N1CCN(C(=O)CCC2(c3ccccc3)NC(=O)NC2=O)CC1` (stereo not drawn) [compound 13, 5-[3-[4-(4-chloro-2-methyl-phenyl)piperazin-1-yl]-3-oxo-propyl]-5-phenyl-imidazolidine-2,4-dione], greater than 20000 nM.
Same read-out and setting: for `O=C1NC(=O)C(CCC(=O)N2CCN(c3ccc4cnccc4c3)CC2)(c2ccccc2)N1` (stereo not drawn) [compound 14, 5-[3-[4-(6-isoquinolyl)piperazin-1-yl]-3-oxo-propyl]-5-phenyl-imidazolidine-2,4-dione] the value was 38 nM; for `Cc1ccc(Cl)cc1N1CCN(C(=O)CCC2(C)NC(=O)NC2=O)CC1` (stereo not drawn) [compound 16, 5-[3-[4-(5-chloro-2-methyl-phenyl)piperazin-1-yl]-3-oxo-propyl]-5-methyl-imidazolidine-2,4-dione], greater than 16700 nM.
Consider `Cc1c(Cl)cccc1N1CCN(C(=O)CCC2(C)NC(=O)NC2=O)CC1` (stereo not drawn) [compound 18, 5-[3-[4-(3-chloro-2-methyl-phenyl)piperazin-1-yl]-3-oxo-propyl]-5-methyl-imidazolidine-2,4-dione], for which the half-inhibitory concentration (IC50) was greater than 20000 nM.
Still for that read-out and setting: for `O=C1NC(=O)C(CCC(=O)N2CCN(c3ccccc3Cl)CC2)(c2ccccc2)N1` (stereo not drawn) [compound 20, 5-[3-[4-(2-chlorophenyl)piperazin-1-yl]-3-oxo-propyl]-5-phenyl-imidazolidine-2,4-dione] the value was greater than 20000 nM; for `Cc1c(Cl)cccc1N1CCN(C(=O)CCC2(c3ccccc3)NC(=O)NC2=O)CC1` (stereo not drawn) [compound 21, 5-[3-[4-(3-chloro-2-methyl-phenyl)piperazin-1-yl]-3-oxo-propyl]-5-phenyl-imidazolidine-2,4-dione], greater than 20000 nM.
Take `Cc1ccc(Cl)cc1N1CCN(C(=O)CCC2(c3ccccc3)NC(=O)NC2=O)CC1` (stereo not drawn) [compound 24, 5-[3-[4-(5-chloro-2-methyl-phenyl)piperazin-1-yl]-3-oxo-propyl]-5-phenyl-imidazolidine-2,4-dione]: the IC50 was greater than 20000 nM.
Same read-out and setting: for `O=C1NC(=O)C(CCC(=O)N2CCN(c3ccc4occc4c3)CC2)(c2ccccc2)N1` (stereo not drawn) [compound 25, 5-[3-[4-(benzofuran-5-yl)piperazin-1-yl]-3-oxo-propyl]-5-phenyl-imidazolidine-2,4-dione] the value was 101 nM; for `O=C1NC(=O)C(CCC(=O)N2CCN(c3ccc4scnc4c3)CC2)(c2ccccc2)N1` (stereo not drawn) [compound 26, 5-[3-[4-(1,3-benzothiazol-5-yl)piperazin-1-yl]-3-oxo-propyl]-5-phenyl-imidazolidine-2,4-dione], 111 nM; for `Cc1ccccc1N1CCN(C(=O)CC[C@@]2(c3ccccc3)NC(=O)NC2=O)CC1` [compound 27, (5S)-5-[3-[4-(o-tolyl)piperazin-1-yl]-3-oxo-propyl]-5-phenyl-imidazolidine-2,4-dione], greater than 10000 nM.
On to `Cc1ccccc1N1CCN(C(=O)CCC2(C(C)C)NC(=O)NC2=O)CC1` (stereo not drawn) [compound 32, 5-isopropyl-5-[3-[4-(o-tolyl)piperazin-1-yl]-3-oxo-propyl]imidazolidine-2,4-dione], for which the IC50 was greater than 20000 nM.
The same measure, in the same setting: to `Cc1ccc(Cl)cc1N1CCN(C(=O)CCC2(C(C)C)NC(=O)NC2=O)CC1` (stereo not drawn) [compound 33, 5-[3-[4-(5-chloro-2-methyl-phenyl)piperazin-1-yl]-3-oxo-propyl]-5-isopropyl-imidazolidine-2,4-dione] belongs greater than 20000 nM.
Consider `Cc1ccc(C)c(N2CCN(C(=O)CCC3(C)NC(=O)NC3=O)CC2)c1` (stereo not drawn) [compound 39, 5-[3-[4-(2,5-dimethylphenyl)piperazin-1-yl]-3-oxo-propyl]-5-methyl-imidazolidine-2,4-dione], for which the IC50 was greater than 20000 nM.
For the molecule `CN(C)CCC1(CCC(=O)N2CCN(c3cccc(Cl)c3)CC2)NC(=O)NC1=O` (stereo not drawn) [compound 44, 5-[3-[4-(3-chlorophenyl)piperazin-1-yl]-3-oxo-propyl]-5-(2-dimethylaminoethyl)imidazolidine-2,4-dione], the IC50 is 2950 nM.
Still for that read-out and setting: to `O=C1NC(=O)C(CCC(=O)N2CCN(c3cccnc3)CC2)(c2ccccc2)N1` (stereo not drawn) [compound 45, 5-[3-oxo-3-[4-(3-pyridyl)piperazin-1-yl]propyl]-5-phenyl-imidazolidine-2,4-dione] belongs greater than 4000 nM.
The same measure, in the same setting: to `CC1(CCC(=O)N2CCN(c3ccc(Cl)c(F)c3)CC2)NC(=O)NC1=O` (stereo not drawn) [compound 49, 5-[3-[4-(4-chloro-3-fluoro-phenyl)piperazin-1-yl]-3-oxo-propyl]-5-methyl-imidazolidine-2,4-dione] belongs 83 nM; to `CC1(CCC(=O)N2CCN(c3ccc(F)c(Cl)c3)CC2)NC(=O)NC1=O` (stereo not drawn) [compound 52, 5-[3-[4-(3-chloro-4-fluoro-phenyl)piperazin-1-yl]-3-oxo-propyl]-5-methyl-imidazolidine-2,4-dione], 2910 nM.
Same read-out and setting: to `O=C1NC(=O)C(CCC(=O)N2CCN(c3cccc(Cl)c3)CC2)(c2cccnc2)N1` (stereo not drawn) [compound 56, 5-[3-[4-(3-chlorophenyl)piperazin-1-yl]-3-oxo-propyl]-5-(3-pyridyl)imidazolidine-2,4-dione] belongs 140 nM.

These data come from patent US9926281B2 (priority 2014, dated 2018).
